For this assay, the target named is T1, Carbonic anhydrase (Pseudomonas aeruginosa (strain ATCC 15692 / PAO1 / 1C / PRS 101 / LMG12228), UniProt Q9HVB9).
T1 sequence (Q9HVB9 whole entry): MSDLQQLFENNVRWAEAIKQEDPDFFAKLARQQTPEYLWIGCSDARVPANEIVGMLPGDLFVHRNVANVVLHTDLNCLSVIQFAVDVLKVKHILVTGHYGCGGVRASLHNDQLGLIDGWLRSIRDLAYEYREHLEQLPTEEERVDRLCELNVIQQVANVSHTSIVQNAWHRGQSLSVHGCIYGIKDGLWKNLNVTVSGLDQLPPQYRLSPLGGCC
The experiment in a line: biochemical. The class given is cell-based, BL21-DE3.

Each structure is given as a SMILES string.

As to `O=P(O)(O)OP(=O)(O)O` [SODIUM PYROPHOSPHATE], the affinity, expressed as Ki, was 8.2 mM.
